Test results published in patent publication US20260207704A1, “STAPLED PEPTIDES AND METHODS THEREOF” (priority 2022, published 2026).

The chains behind the UniProt entries cited, without tags or fusion partners.
UniProt P35222, whole entry: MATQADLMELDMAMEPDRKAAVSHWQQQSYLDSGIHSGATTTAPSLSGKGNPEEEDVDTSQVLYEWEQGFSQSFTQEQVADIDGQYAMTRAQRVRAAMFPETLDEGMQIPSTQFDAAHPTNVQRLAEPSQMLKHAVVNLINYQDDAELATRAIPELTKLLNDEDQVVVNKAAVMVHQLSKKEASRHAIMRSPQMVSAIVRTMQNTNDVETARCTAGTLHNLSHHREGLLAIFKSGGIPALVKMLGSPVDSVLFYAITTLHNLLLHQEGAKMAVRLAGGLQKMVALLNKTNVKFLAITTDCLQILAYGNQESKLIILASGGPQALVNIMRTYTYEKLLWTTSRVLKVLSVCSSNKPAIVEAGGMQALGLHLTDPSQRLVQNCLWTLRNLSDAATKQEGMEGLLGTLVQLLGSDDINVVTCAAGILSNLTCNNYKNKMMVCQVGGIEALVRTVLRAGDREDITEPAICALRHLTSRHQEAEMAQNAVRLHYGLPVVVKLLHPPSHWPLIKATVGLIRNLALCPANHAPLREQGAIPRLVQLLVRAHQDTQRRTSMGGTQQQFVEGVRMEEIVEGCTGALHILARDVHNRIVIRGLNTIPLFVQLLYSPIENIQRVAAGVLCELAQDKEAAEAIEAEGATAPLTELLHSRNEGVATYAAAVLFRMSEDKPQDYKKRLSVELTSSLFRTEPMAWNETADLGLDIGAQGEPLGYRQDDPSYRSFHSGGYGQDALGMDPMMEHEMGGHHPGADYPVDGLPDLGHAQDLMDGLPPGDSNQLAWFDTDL

Tests used:
[1] = target: beta-catenin (Homo sapiens, UniProt P35222); experiment: fluorescence polarization binding to beta-catenin; details: beta-Catenin FP IC50 (nM)
[2] = target: T1, beta-catenin/TCF4 (Homo sapiens, UniProt P35222); experiment: Nano-BRET target engagement assay (HEK293 cells); assay type: cell-based
T1 construct: expressed in transfected cells; host or cells: HEK293 cells

Row | SMILES | IC50 [1] [nM] | IC50 [2] [nM]
1 | CC(=O)N1CCC[C@]12CC=CCCCC1(CCCC=CCCCOC(=O)N3CC[C@@]4(C3)NC(=O)[C@H](CCCCNC(=O)CC[C@@H](C(=O)N[C@@H](C)C(N)=O)NC(=O)[C@H](Cc3csc5ccccc35)NC(=O)[C@H](Cc3ccsc3)NC4=O)NC(=O)[C@H](Cc3ccccc3)NC(=O)[C@H](C)NC(=O)[C@H](CCS(C)(=O)=O)NC(=O)[C@H](Cc3cccc(C(=O)O)c3)NC(=O)[C@H](CC(=O)O)NC1=O)NC(=O)[C@H](CC(C)(C)C)NC(=O)[C@H](CC(=O)O)NC2=O (relative stereo) [I-380, Ac-PL3-Asp-Npg-B5-Asp-3COOHF-Met20-Ala-Phe-Lys*3-PyrS2-3Thi-BztA-GlnR*3-Ala-NH2] | < 50 | > 10000
2 | CC(=O)N1CCC[C@]12CC=CCCCC1(CCCC=CCCCOC(=O)N3CC[C@@]4(C3)NC(=O)[C@H](CCCCNC(=O)CC[C@@H](C(=O)N[C@@H](C)C(N)=O)NC(=O)[C@H](Cc3csc5ccccc35)NC(=O)[C@H](CC3CCCCC3)NC4=O)NC(=O)[C@H](Cc3ccccc3)NC(=O)[C@H](C)NC(=O)C(C)(C)NC(=O)[C@H](Cc3cccc(C(=O)O)c3)NC(=O)[C@H](CC(=O)O)NC1=O)NC(=O)[C@H](CC(C)(C)C)NC(=O)[C@H](CC(=O)O)NC2=O (relative stereo) [I-285, Ac-PL3-Asp-Npg-B5-Asp-3COOHF-Aib-Ala-Phe-Lys*3-PyrS2-ChA-BztA-GlnR*3-Ala-NH2] | < 50 | 3000 to 10000
3 | CC(=O)N1CCC[C@]12CC=CCCCC1(CCCC=CCCCOC(=O)N3CC[C@@]4(C3)NC(=O)[C@H](CC(C)C)NC(=O)[C@H](Cc3ccccc3)NC(=O)[C@H](C)NC(=O)[C@H](CCCCNC(=O)c3cccc(c3)C(=O)NCCCC[C@@H](C(N)=O)NC(=O)[C@H](Cc3csc5ccccc35)NC(=O)[C@H](Cc3ccccc3Cl)NC4=O)NC(=O)[C@H](Cc3cccc(C(=O)O)c3)NC(=O)[C@H](CC(=O)O)NC1=O)NC(=O)[C@H](CC(C)(C)C)NC(=O)[C@H](CC(=O)O)NC2=O (stereo partly drawn) [I-50, Ac-PL3-Asp-Npg-B5-Asp-3COOHF-[isophthalate]-Lys-Ala-Phe-Leu-PyrS2-2ClF-BztA-Lys-NH2] | 50 to 200 | > 10000
4 | CC(=O)N1CCC[C@]12CC=CCCCC1(CCCC=CCCCOC(=O)N3CC[C@@]4(C3)NC(=O)[C@H](CSCc3cccc(c3)CSC[C@@H](C(=O)N[C@@H](C)C(N)=O)NC(=O)[C@H](Cc3csc5ccccc35)NC(=O)[C@H](Cc3ccccc3C(F)(F)F)NC4=O)NC(=O)[C@H](Cc3ccccc3)NC(=O)[C@H](C)NC(=O)C(C)(C)NC(=O)[C@H](Cc3cccc(C(=O)O)c3)NC(=O)[C@H](CC(=O)O)NC1=O)NC(=O)[C@H](CC(C)(C)C)NC(=O)[C@H](CC(=O)O)NC2=O (stereo partly drawn) [I-375, Ac-PL3-Asp-Npg-B5-Asp-3COOHF-Aib-Ala-Phe-[mXyl]Cys-PyrS2-2F3MeF-BztA-Cys-Ala-NH2] | < 50 | 3000 to 10000
5 | CC(=O)N1CCC[C@]12CC=CCCCC1(CCCC=CCCCOC(=O)N3CC[C@@]4(C3)NC(=O)[C@H](CCCCNC(=O)CC[C@@H](C(=O)N[C@@H](CCCCNC(=O)CCOCCOCCOCCOCCOCCOCCOCCOCCNC(=O)CCCC[C@@H]3SC[C@@H]5NC(=O)N[C@@H]53)C(N)=O)NC(=O)[C@H](Cc3csc5ccccc35)NC(=O)[C@H](Cc3ccsc3)NC4=O)NC(=O)[C@H](Cc3ccccc3)NC(=O)[C@H](C)NC(=O)C(C)(C)NC(=O)[C@H](Cc3cccc(C(=O)O)c3)NC(=O)[C@H](CCC(=O)O)NC1=O)NC(=O)[C@H](CC(C)(C)C)NC(=O)[C@H](CCC(=O)O)NC2=O (relative stereo) [I-518, Ac-PL3-Glu-Npg-B5-Glu-3COOHF-Aib-Ala-Phe-Lys*3-PyrS2-3Thi-BztA-GlnR*3-[BiotinPEG8]Lys-NH2] | > 1000 | 
6 | CC(=O)N1CCC[C@]12CC=CCCCC1(CCCC=CCCCOC(=O)N3CC[C@@]4(C3)NC(=O)[C@H](CCCCNC(=O)CC[C@@H](C(=O)N[C@@H](C)C(N)=O)NC(=O)[C@H](Cc3csc5ccccc35)NC(=O)[C@H](Cc3ccsc3)NC4=O)NC(=O)[C@H](Cc3ccccc3)NC(=O)[C@H](C)NC(=O)C(C)(C)NC(=O)[C@H](Cn3cc(CC(C)(C)C(=O)O)nn3)NC(=O)[C@H](CC(=O)O)NC1=O)NC(=O)[C@H](CC(C)(C)C)NC(=O)[C@H]([C@H](C)O)NC2=O (relative stereo) [I-317, Ac-PL3-aThr-Npg-B5-Asp-[CH2CMe2CO2H]TriAzDap-Aib-Ala-Phe-Lys*3-PyrS2-3Thi-BztA-GlnR*3-Ala-NH2] | > 1000 | 
7 | CC(=O)N1CCC[C@]12CC=CCCCC1(CCCC=CCCCOC(=O)N3CC[C@@]4(C3)NC(=O)[C@H](CC(C)C)NC(=O)[C@H](Cc3ccccc3)NC(=O)[C@H](C)NC(=O)[C@H](CCC(=O)N3CCC(CC3)CN(C)C(=O)CC[C@@H](C(=O)N[C@@H](C)C(N)=O)NC(=O)[C@H](Cc3csc5ccccc35)NC(=O)[C@H](Cc3ccccc3C(F)(F)F)NC4=O)NC(=O)[C@H](Cc3cccc(C(=O)O)c3)NC(=O)[C@H](CC(=O)O)NC1=O)NC(=O)[C@H](CC(C)(C)C)NC(=O)[C@H](CC(=O)O)NC2=O (single isomer, unassigned) [I-95, Ac-PL3-Asp-Npg-B5-Asp-3COOHF-GlnR-Ala-Phe-Leu-PyrS2-2F3MeF-BztA-[4mampiperidine]GlnR-Ala-NH2] | 50 to 200 | 
8 | CC(=O)N1CCC[C@]12CC=CCCCC1(CCCC=CCCCOC(=O)N3CC[C@@]4(C3)NC(=O)[C@H](CSc3c(F)c(F)c(c(F)c3F)-c3c(F)c(F)c(c(F)c3F)SC[C@@H](C(=O)N[C@@H](C)C(N)=O)NC(=O)[C@H](Cc3csc5ccccc35)NC(=O)[C@H](Cc3ccccc3C(F)(F)F)NC4=O)NC(=O)[C@H](Cc3ccccc3)NC(=O)[C@H](C)NC(=O)C(C)(C)NC(=O)[C@H](Cc3cccc(C(=O)O)c3)NC(=O)[C@H](CC(=O)O)NC1=O)NC(=O)[C@H](CC(C)(C)C)NC(=O)[C@H](CC(=O)O)NC2=O (single isomer, unassigned) [I-341, Ac-PL3-Asp-Npg-B5-Asp-3COOHF-Aib-Ala-Phe-[8FBB]Cys-PyrS2-2F3MeF-BztA-Cys-Ala-NH2] |  | > 10000
9 | CC(=O)N1CCC[C@]12CCCCCCC13CCCCCCCCOC(=O)N4CC[C@@]5(C4)NC(=O)[C@H](CCCCNC(=O)CC[C@@H](C(=O)N[C@@H](C)C(N)=O)NC(=O)[C@H](Cc4csc6ccccc46)NC(=O)[C@H](Cc4ccccc4C(F)(F)F)NC5=O)NC(=O)[C@H](Cc4ccccc4)NC(=O)[C@H](C)NC(=O)[C@H](CCCCNC(=O)CC[C@H](NC(=O)[C@H](CC(=O)O)NC2=O)C(=O)N1)NC(=O)[C@H](Cc1cccc(C(=O)O)c1)NC(=O)[C@H](CC(=O)O)NC3=O (relative stereo) [I-79, Ac-PL3-Asp-GlnR**3-B5-Asp-3COOHF-Lys**3-Ala-Phe-Lys*3-PyrS2-2F3MeF-BztA-GlnR*3-Ala-NH2] | 50 to 200 | 
10 | CC(=O)N1CCC[C@]12CC=CCCCC1(CCCC=CCCCOC(=O)N3CC[C@@]4(C3)NC(=O)[C@H](CSc3c(F)c(F)c(c(F)c3F)-c3c(F)c(F)c(c(F)c3F)SC[C@@H](C(=O)N[C@@H](C)C(N)=O)NC(=O)[C@H](Cc3csc5ccccc35)NC(=O)[C@H](Cc3ccccc3C(F)(F)F)NC4=O)NC(=O)[C@H](Cc3ccccc3)NC(=O)[C@H](C)NC(=O)C(C)(C)NC(=O)[C@H](Cc3cccc(C(=O)O)c3)NC(=O)[C@H](CC(=O)O)NC1=O)NC(=O)[C@H](CC(C)(C)C)NC(=O)[C@H](CC(=O)O)NC2=O (single isomer, unassigned) [I-340, Ac-PL3-Asp-Npg-B5-Asp-3COOHF-Aib-Ala-Phe-[8FBB]Cys-PyrS2-2F3MeF-BztA-Cys-Ala-NH2] | 200 to 750 | 
